Measurements from PMC6728138, “Quantitative mapping of protein-peptide affinity landscapes using spectrally encoded beads” (eLife, 2019).

Test system: NFAT-driven luciferase activity in HEK293T cells
Assay: In vivo calcineurin activity assay (NFAT dual luciferase reporter)
Format: cell-based
Description: The ultimate goal of mapping CN-SLiM binding energy landscapes is to improve understanding of CN target substrate recognition and enable rational design of in vivo inhibitors. To test the degree to which in vitro MRBLE-pep affinities predict in vivo inhibition, we used a previously developed dual luciferase reporter assay to assess the activity of the NFAT2 transcription factor in HEK293T cells (Figure 6A) ([Grigoriu et al., 2013]). NFAT2 must be dephosphorylated by CN to accumulate in the nucleus, where it activates transcription of its target genes, and this interaction can be inhibited by peptides or small molecules that binds to CN. Reduction of NFAT2-dependent transcriptional activity upon expression of a competing PxIxIT peptide therefore reflects, quantitatively, the affinity of the inhibitor peptide for CN. Candidate PxIxIT inhibitors were co-expressed as GFP-fusion proteins within cells to enhance their stability and facilitate direct measurement of inhibitor concentrations.
PxIxIT peptides were fused to eGFP in pEGFPc1 vector. HEK293T cells were transfected with pEGFPc1 clones, pNFAT-Luc and CMV-Renilla in a 6-well plate format. 18 hr post transfection, 1μM FK506 or DMSO (vehicle) was added to the media as needed. 36 hr post transfection, cells were treated with 1 mM Ionomycin and 1 mM phorbol 12,13 di-butyrate to activate calcineurin and AP-1 (via PKC) respectively. 6 hr after pathway activation, cells were collected, washed in PBS and re-suspended in DMEM media. 80% of the cells were used to measure luciferase activity and renilla using the Dual-Glo assay system (Promega) with three technical replicates. The remaining cells were frozen and stored at −80°C. Cell lysates were prepared in RIPA buffer. 15–20 μg of lysate was analyzed by Western for expression of GFP. GFP signal was normalized to either actin or tubulin. Luciferase activity (normalized to renilla expression) was further normalized to eGFP expression. Data represent at least three experimental replicates.

[1] = PKIVIT in vivo experiment, replicate 1
[2] = PKIVIT in vivo experiment, replicate 2
[3] = PKIVIT in vivo experiment, replicate 3
[4] = PKIVIT in vivo experiment, replicate 4
[5] = all other peptides in vivo experiment, replicate 1
[6] = all other peptides in vivo experiment, replicate 2
[7] = all other peptides in vivo experiment, replicate 3
[8] = initial in vivo experiment, replicate 1, FK506 1 μM
[9] = initial in vivo experiment, replicate 2, FK506 1 μM
[10] = initial in vivo experiment, replicate 3, FK506 1 μM

Row | Substance | NFAT-driven luciferase activity, normalized, relative to empty vector (Data) [1] | NFAT-driven luciferase activity, normalized, relative to empty vector (Data) [2] | NFAT-driven luciferase activity, normalized, relative to empty vector (Data) [3] | NFAT-driven luciferase activity, normalized, relative to empty vector (Data) [4] | NFAT-driven luciferase activity, normalized, relative to empty vector (Data) [5] | NFAT-driven luciferase activity, normalized, relative to empty vector (Data) [6] | NFAT-driven luciferase activity, normalized, relative to empty vector (Data) [7] | NFAT-driven luciferase activity, normalized to renilla and eGFP expression, relative to empty vector (Data) [8] | NFAT-driven luciferase activity, normalized, relative to empty vector (Data) [9] | NFAT-driven luciferase activity, normalized, relative to empty vector (Data) [10]
1 | IPKIVIT [PKIVIT-eGFP variant] | 0.04086 | 0.05199 | 0.03422 | 0.02605 | – | – | – | – | – | –
2 | PRIHIT [NFATc2-eGFP variant] | – | – | – | – | 0.9608 | 0.763 | 0.8824 | – | – | –
3 | IAIIIT [IAIIIT (AKAP), AKAP79 PxIxIT peptide fused to eGFP] | – | – | – | – | 0.4425 | 0.4249 | 0.3809 | 0.4418 | 0.4594 | 0.4215
4 | DPRIEIT [NFATc2-eGFP variant] | – | – | – | – | 0.5253 | 0.5299 | 0.6622 | – | – | –
5 | PKIIIT [PKIIIT site of A238L as eGFP fusion] | 0.0342 | 0.04743 | 0.08183 | 0.07617 | – | – | – | – | – | –
6 | LPRIEIT [NFATc2-eGFP variant] | – | – | – | – | 0.2238 | 0.1533 | 0.1829 | – | – | –
7 | PKIVIT [PKIVIT PxIxIT peptide fused to eGFP, expressed in HEK293T cells] | 0.06969 | 0.05279 | 0.05005 | 0.05009 | – | – | – | 0.05964 | 0.08838 | 0.06784
8 | EPKIVIT [PKIVIT-eGFP variant] | 0.3361 | 0.4725 | 0.2064 | 0.1312 | – | – | – | – | – | –
9 | PRIEIT [PRIEIT (NFAT), NFATc2 PxIxIT peptide fused to eGFP] | – | – | – | – | 0.417 | 0.3945 | 0.5589 | 0.5207 | 0.3665 | 0.5522
10 | PVIVITgpD [PVIVIT-eGFP variant, H9D] | – | – | – | – | 0.05157 | 0.05511 | 0.05137 | – | – | –
11 | PKIVITgpD [PKIVIT-eGFP variant, H9D] | 0.03298 | 0.04736 | 0.03611 | 0.02196 | – | – | – | – | – | –
